For the assay, the target named is T1, gp100, also known as premelanosome protein (PMEL) peptide on HLA-A*02:01 (human).
T1 peptide: KTWGQYWQV
Briefly: multimer staining.

B1: TCR clone 5 (TCR, V domains shown)
Valpha: GEDVEQSLFLSVREGDSSVINCTYTDSSSTYLYWYKQEPGAGLQLLTYIFSNMDMKQDQRLTVLLNKKDKHLSLRIADTQTGDSAIYFCAEDTDKLIFGTGTRLQVFP
Vbeta: EAGVAQSPRYKIIEKRQSVAFWCNPISGHATLYWYQQILGQGPKLLIQFQNNGVVDDSQLPKDRFSAERLKGVDSTLKIQPAKLEDSAVYLCASSLGGGELFFGEGSRLTVL
With B1, the binding result is listed as “recognises”.

B2: TCR clone 4 (TCR, V domains shown)
Valpha: GEDVEQSLFLSVREGDSSVINCTYTDSSSTYLYWYKQEPGAGLQLLTYIFSNMDMKQDQRLTVLLNKKDKHLSLRIADTQTGDSAIYFCAEIANRDDKIIFGKGTRLHILP
Vbeta: DTEVTQTPKHLVMGMTNKKSLKCEQHMGHRAMYWYKQKAKKPPELMFVYSYEKLSINESVPSRFSPECPNSSLLNLHLHALQPEDSALYLCASSQAVNTGELFFGEGSRLTVL
As to B2, the binding result was “recognises”.

Source of the values: patent publication US20220213167A1 (published 2022).
